In one assay the target is GluN1-1a S132A/GluN2B WT (Rattus norvegicus, UniProt P35439+Q00960, S132A).
The target in the next assay is GluN1-1a Y109S/GluN2B WT (Rattus norvegicus, UniProt P35439+Q00960, Y109S). Conditions: mutant IC50 / wildtype IC50, GluN1-1a Y109S.
A further assay concerns the target GluN1-1a F113S/GluN2B WT (Rattus norvegicus, UniProt P35439+Q00960, F113S). Conditions: mutant IC50 / wildtype IC50, GluN1-1a F113S.
In another assay the target is GluN1-1a WT/GluN2B I111A (Rattus norvegicus, UniProt P35439+Q00960, I111A). Conditions: mutant IC50 / wildtype IC50, GluN2B I111A.
A further assay addresses GluN1-1a WT/GluN2B E236A (Rattus norvegicus, UniProt P35439+Q00960, E236A). In words: cell-based.

By UniProt entry, the sequences of proteins in these tests, tags left out. Residues count along the entry.
UniProt Q00960, 27-1482: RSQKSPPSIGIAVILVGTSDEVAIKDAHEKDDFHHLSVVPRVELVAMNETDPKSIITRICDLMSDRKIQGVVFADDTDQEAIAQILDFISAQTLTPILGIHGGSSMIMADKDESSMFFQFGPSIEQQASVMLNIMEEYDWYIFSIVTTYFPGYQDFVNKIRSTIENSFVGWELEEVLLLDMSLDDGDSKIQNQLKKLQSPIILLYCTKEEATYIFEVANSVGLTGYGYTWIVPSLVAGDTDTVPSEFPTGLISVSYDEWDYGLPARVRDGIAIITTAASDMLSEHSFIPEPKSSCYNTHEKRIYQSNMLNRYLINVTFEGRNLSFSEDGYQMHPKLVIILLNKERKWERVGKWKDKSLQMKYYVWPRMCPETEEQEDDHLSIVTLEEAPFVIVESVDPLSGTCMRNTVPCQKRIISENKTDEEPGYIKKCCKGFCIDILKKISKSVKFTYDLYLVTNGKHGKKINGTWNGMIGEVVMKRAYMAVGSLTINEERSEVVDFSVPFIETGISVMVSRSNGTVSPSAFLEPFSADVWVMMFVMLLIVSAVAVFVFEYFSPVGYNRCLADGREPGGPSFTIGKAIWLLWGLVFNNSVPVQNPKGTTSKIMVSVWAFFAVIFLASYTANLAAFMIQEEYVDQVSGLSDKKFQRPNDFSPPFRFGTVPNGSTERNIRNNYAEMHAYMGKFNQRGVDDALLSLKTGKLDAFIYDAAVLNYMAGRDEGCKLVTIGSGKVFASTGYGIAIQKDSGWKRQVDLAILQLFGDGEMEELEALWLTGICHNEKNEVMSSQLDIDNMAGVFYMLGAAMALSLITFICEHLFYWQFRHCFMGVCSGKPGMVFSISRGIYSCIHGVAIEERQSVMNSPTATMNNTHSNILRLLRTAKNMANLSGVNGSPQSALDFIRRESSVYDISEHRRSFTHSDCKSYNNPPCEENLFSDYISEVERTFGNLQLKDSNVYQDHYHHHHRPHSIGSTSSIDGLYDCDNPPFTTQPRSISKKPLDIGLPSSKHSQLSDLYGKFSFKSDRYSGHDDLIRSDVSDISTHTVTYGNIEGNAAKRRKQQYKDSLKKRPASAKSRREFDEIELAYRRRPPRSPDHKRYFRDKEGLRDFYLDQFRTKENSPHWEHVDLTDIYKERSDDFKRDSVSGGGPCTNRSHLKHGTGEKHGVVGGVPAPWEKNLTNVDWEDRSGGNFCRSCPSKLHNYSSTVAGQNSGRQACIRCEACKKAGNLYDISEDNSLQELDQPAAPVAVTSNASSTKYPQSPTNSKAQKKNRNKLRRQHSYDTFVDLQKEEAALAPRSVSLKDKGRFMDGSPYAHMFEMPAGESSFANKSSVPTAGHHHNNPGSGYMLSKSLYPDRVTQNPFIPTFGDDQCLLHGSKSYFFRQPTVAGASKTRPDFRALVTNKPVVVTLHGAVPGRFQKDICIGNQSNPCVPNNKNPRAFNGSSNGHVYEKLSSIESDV
UniProt Q00960, 27-1482 I111A: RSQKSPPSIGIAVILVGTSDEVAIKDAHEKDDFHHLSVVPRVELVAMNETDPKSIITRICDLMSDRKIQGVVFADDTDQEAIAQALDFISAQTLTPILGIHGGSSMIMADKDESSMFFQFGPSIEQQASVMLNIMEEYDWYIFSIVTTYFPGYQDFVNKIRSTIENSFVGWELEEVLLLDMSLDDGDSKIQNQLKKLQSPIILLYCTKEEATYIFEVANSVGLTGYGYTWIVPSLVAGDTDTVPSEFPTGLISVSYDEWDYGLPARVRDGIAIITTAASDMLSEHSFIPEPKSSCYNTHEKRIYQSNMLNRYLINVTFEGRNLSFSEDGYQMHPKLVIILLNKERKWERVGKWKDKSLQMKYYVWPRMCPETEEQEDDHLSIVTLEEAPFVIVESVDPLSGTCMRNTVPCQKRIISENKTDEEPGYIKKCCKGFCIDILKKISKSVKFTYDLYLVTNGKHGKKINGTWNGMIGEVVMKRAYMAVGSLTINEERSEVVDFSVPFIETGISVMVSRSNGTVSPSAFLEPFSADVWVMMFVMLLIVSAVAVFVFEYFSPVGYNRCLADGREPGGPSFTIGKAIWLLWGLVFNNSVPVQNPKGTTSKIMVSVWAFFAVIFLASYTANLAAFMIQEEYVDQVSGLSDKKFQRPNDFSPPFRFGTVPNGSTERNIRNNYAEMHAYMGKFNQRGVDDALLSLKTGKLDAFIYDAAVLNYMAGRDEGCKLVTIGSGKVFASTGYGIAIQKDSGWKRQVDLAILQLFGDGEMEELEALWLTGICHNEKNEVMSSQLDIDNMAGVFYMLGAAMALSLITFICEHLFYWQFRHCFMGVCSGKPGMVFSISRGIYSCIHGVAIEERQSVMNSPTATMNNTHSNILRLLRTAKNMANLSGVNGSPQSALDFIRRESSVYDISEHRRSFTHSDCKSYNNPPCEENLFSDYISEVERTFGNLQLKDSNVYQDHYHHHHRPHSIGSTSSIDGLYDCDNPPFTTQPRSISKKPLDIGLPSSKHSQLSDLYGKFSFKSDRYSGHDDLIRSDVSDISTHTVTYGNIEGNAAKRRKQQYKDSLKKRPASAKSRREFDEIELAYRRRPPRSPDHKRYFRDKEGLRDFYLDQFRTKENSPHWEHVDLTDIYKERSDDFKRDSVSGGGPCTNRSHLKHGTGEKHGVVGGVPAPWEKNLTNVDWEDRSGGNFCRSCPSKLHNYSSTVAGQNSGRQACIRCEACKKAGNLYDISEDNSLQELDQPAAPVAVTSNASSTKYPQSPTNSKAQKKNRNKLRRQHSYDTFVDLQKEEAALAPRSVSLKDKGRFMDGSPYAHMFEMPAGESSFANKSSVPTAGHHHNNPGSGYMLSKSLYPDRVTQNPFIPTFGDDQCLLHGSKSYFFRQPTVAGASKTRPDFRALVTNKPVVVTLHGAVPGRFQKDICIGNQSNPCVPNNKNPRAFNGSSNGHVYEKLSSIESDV
UniProt Q00960, 27-1482 E236A: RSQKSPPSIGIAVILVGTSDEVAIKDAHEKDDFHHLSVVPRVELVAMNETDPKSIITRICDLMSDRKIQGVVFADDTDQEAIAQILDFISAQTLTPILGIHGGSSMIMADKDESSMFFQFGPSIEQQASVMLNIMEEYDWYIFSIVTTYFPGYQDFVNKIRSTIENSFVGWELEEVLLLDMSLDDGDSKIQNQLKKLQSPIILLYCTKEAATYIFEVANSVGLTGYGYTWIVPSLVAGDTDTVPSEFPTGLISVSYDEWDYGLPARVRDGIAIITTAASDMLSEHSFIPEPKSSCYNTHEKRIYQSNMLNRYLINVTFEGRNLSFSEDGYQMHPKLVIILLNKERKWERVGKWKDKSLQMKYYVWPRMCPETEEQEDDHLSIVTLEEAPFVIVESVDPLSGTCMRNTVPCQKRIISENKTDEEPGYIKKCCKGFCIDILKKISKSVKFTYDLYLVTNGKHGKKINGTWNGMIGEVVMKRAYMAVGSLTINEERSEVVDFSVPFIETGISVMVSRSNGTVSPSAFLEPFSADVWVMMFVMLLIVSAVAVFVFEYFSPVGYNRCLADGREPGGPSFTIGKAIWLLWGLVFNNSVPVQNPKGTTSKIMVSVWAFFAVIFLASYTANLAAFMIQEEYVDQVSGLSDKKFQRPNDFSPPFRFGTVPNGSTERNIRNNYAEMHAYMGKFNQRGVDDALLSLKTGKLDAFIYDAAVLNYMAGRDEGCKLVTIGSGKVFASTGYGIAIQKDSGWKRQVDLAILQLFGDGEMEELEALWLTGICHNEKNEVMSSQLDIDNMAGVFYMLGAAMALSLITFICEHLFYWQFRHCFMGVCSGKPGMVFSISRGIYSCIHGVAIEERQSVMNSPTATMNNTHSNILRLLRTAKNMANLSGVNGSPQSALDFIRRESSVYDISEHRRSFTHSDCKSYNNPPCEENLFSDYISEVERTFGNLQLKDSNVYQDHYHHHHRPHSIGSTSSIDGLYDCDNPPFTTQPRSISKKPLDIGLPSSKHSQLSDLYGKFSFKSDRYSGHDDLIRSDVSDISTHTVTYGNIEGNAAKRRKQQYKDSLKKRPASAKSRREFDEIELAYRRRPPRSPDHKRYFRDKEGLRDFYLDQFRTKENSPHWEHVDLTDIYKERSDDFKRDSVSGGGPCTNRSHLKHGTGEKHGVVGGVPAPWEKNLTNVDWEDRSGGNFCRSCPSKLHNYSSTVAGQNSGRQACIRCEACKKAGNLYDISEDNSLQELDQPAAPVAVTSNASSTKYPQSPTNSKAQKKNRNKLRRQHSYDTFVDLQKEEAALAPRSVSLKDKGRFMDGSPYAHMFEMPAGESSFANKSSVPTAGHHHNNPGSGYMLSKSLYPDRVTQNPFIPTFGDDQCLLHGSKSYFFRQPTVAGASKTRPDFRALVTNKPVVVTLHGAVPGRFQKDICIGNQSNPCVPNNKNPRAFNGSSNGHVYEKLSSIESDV

Molecules are shown by their SMILES.

In general, IC50 refers to the point on the concentration scale where inhibition reaches its midpoint.

Take `Oc1ccc2c(c1)CCN(CCCCc1ccccc1)C[C@@H]2O` [compound (R)-1]: the “p (slope)” value at GluN1-1a S132A/GluN2B WT turned out to be 0.74.
In the case of `Oc1ccc2c(c1)CCN(CCCCc1ccccc1)C[C@H]2O` [compound (S)-1], the IC50 shift factor worked out at 3.7 at GluN1-1a Y109S/GluN2B WT, 3.7 on GluN1-1a F113S/GluN2B WT and 7.6 on GluN1-1a WT/GluN2B I111A. Further, on GluN1-1a WT/GluN2B E236A, the midpoint of inhibition, the IC50, lay at 1980 ± 597 nM.
